This is an account of results in PMC10709440, “High-throughput ligand profile characterization in novel cell lines expressing seven heterologous insect olfactory receptors for the detection of volatile plant biomarkers” (Scientific Reports, 2023).

For one test, the target named is T1, Drosophila OR47a (Drosophila melanogaster, UniProt P81921).
T1 construct: expressed in transfected cells
T1 sequence (P81921 1-385): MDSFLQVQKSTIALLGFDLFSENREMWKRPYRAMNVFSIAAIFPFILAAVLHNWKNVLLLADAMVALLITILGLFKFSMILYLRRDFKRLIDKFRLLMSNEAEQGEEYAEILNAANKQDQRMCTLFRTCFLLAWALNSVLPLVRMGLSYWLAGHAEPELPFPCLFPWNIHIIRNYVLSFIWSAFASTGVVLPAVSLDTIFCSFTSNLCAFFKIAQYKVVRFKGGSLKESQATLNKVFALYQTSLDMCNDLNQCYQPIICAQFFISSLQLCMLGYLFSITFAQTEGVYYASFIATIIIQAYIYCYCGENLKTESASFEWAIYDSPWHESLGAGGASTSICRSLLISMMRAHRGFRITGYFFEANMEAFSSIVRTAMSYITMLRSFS
T1 sequence (Q9VNB5 1-486 partner): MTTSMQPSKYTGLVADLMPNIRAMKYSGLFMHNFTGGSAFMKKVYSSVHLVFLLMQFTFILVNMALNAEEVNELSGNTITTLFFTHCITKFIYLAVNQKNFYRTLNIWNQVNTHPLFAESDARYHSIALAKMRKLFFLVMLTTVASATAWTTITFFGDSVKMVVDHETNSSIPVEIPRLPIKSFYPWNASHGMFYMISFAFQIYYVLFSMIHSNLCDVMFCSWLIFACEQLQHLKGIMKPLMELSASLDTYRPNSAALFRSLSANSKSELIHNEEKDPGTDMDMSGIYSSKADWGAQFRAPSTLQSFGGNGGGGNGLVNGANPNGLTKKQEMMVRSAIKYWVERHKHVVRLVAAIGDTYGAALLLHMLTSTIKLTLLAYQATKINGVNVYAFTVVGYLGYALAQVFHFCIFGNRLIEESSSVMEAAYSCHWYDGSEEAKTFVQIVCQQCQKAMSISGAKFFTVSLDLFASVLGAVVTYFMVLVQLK
Briefly: Calcium ion fluorescence (GCaMP6) assay, OR47a stable HEK293 cell line. The test is classed as cell-based. The note with it: for Average response: OR47a cell line, mean of biological replicates; for DF norm AVERAGE OR47a: normalized fluorescence change, values below 0.05 threshold given as 0. As to the method: These VUAA1 normalized ∆F values were used to compare the different receptors and ligands.
The concentration-dependent effect of the reference ligands on their cognate cell lines was examined in more detail. Twelve different ligand concentrations were measured on each cell line in an overall 0.01 μM to 100 μM concentration range with 5 repetitions with three technical replicates each time.
Twelve thousand to 18,000 cells were plated into each well of a black wall, transparent bottom 384-well microplate (Greiner) 48 h or 72 h before the measurements and were simultaneously treated with 1 μg/mL doxycycline. […] The plate has 24 columns, thus we could record responses in up to eight different cell lines in each plate. On the day of the experiment, the growth medium was replaced with 20 µL assay buffer/well (140 mM NaCl, 5 mM KCl, 2 mM CaCl2, 1 mM MgCl2, 5 mM HEPES-Na, 20 mM glucose, pH 7.3, 340 mOsm). […] Baseline fluorescence (F0) was recorded for 5 s, after which 7 µL VOC buffer (140 mM NaCl, 5 mM KCl, 2 mM CaCl2, 1 mM MgCl2, 5 mM HEPES-Na, 31 mM glucose, 0.1% DMSO, pH 7.3, 340 mOsm) was injected into each well in one row and the fluorescence response was recorded for an additional 30 s, at a rate of one read/sec. VOC solutions (VOC buffer with 4× concentration of the final measured VOC concentration, 9 µL/well was injected) were measured on the same wells in a second round with the same protocol. Each individual concentration of a specific VOC sample was recorded in three wells for the same cell line on the same microplate. The raw data were exported in xls file format, F0 and FMAX values, and the fluorescence intensity changes (∆F) were calculated in Excel (Microsoft) (Supplementary file Data summary.xlsx) using the following equation: ΔF=FMAX-F0/F0 (see also Fig. 1C). On each plate, we recorded the response of each cell line to 50 µM VUAA1. The average of these ∆F values of each cell line were used to calculate the VUAA1-normalized values for the rest of the plate, by dividing VOC response ∆F values by the average VUAA1 response ∆F value of the corresponding OR cell line. Each VOC-OR combination was measured three times as technical replicates. […] The average of these replicates were used as one ∆F and VUAA1-normalized ∆F in the following analysis.
In the next rows we tested the reference VOCs (or other VOCs known to activate the corresponding cell lines), in order to test if all cell lines are responsive. The remaining rows were used to test VOCs with unknown effect.
The recorded FMAX, F0, ∆F, VUAA1-normalized ∆F values, as well as the OR name, the name of the tested sample, and the final concentration for each well were copied into supplementary file Data summary.xlsx, that was used to summarize all the plates recorded. Here, the averages of the measurements were calculated for each receptor-VOC-concentration combination.

The subject of another test is OR98a. Further details: method as in earlier work. The note with it: DoOR database value; ref DoOR; cited from earlier work.
The test system of the next test is OR49b. Further details: method as in earlier work. The note with it: DoOR database value; ref DoOR; cited from earlier work.
[1] abbreviates: HEK293, read-out: OR47a response (VUAA1-normalized response).

With `CC(=O)CCC=C(C)C` [6-methyl-5-hepten-2-one], the activation at 1 µM at Drosophila OR47a (setting [1]) was 0%. For the same compound, the activation at 10 µM at Drosophila OR47a (setting [1]) turned out to be 0%. For the same compound, on Drosophila OR47a (setting [1]), the activation at 100 µM stood at 6%. The Average response on Drosophila OR47a (odorant cc. 1 µM) was found to be 0.00; on Drosophila OR47a (odorant cc. 10 µM), 0.00; on Drosophila OR47a (odorant cc. 100 µM), 0.06. Moreover, the “DF norm AVERAGE OR47a” value came to 0 on Drosophila OR47a (concentration 1), 0 at Drosophila OR47a (concentration 10) and 0.06288 on Drosophila OR47a (concentration 100). Besides, the “OR98a DoOR response” value in the test on OR98a was 0.69. The “OR49b DoOR response” value with OR49b was 0.008.
